Experimental data taken from patent US20100233086A1, “COMPOUNDS FOR USE IN IMAGING, DIAGNOSING AND/OR TREATMENT OF DISEASES OF THE CENTRAL NERVOUS SYSTEM OR OF TUMORS” (priority 2007, published 2010).

Assay: Plasma radioactivity and plasma metabolites in cynomolgus monkey
Text: Plasma radioactivity profiles have been monitored over time. […] In addition, metabolites occurring in plasma over time have been monitored (FIGS. 8 and 9) for both ligands.

C#CCN(C)[C@H](C[18F])Cc1ccccc1 [[^18F]compound 13, N-[(2S)-1-(^18F)fluoro-3-phenylpropan-2-yl]-N-methylprop-2-yn-1-amine]
plasma radioactivity of mother compound relative to [^11C]Deprenyl (178 MBq vs 155 MBq [^11C]Deprenyl, 30 and 45 min time points): about double
metabolite b relative to that observed for [^11C]Deprenyl (plasma, 30 min time point): one third
